Amino acid sequences for entries named in this document (tags omitted). A change or cut given only in a name is not applied to a line headed by its entry.
UniProt O14939: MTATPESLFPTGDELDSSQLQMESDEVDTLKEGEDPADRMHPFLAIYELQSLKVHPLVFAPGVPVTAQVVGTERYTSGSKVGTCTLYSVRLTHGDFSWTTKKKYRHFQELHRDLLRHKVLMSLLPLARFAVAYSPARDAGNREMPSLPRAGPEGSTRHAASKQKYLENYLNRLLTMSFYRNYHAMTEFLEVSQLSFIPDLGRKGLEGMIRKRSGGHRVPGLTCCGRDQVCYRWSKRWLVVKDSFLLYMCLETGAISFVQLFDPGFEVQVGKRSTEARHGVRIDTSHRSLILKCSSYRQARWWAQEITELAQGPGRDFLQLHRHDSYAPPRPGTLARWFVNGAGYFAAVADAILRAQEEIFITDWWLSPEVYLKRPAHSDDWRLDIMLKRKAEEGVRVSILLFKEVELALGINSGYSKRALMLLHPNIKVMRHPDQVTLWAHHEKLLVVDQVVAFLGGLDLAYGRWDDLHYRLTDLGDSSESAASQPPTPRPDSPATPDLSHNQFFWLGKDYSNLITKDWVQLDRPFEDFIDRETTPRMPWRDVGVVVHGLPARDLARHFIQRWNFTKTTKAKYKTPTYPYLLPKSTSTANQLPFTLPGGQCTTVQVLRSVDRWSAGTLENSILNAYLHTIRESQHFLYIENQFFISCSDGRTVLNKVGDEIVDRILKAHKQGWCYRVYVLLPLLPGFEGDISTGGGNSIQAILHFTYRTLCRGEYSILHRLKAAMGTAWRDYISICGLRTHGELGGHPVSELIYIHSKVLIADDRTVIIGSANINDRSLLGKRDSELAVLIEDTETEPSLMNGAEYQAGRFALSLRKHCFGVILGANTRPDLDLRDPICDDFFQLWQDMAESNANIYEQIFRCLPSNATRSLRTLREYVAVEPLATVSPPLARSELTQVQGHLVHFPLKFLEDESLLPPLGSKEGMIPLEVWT

According to ChEMBL document CHEMBL1212709, “Design of isoform-selective phospholipase D inhibitors that modulate cancer cell invasiveness” (Nat Chem Biol, 2009):

Assays:
Phospholipase D2 = Phospholipase D2 (Homo sapiens, UniProt O14939); assay: Inhibition of human PLD2 assessed as release of methyl-[3H]choline from choline-methyl-[3H]dipalmitoylphosphatidylcholine after 30 mins by exogenous substrate assay
Phospholipase D1 = target: T1, Phospholipase D1 (Rattus norvegicus, UniProt P70496); assay: Inhibition of N-terminally truncated rat PLD1 assessed as release of methyl-[3H]choline from choline-methyl-[3H]dipalmitoylphosphatidylcholine after 30 mins by exogenous substrate assay
T1 sequence (P70496 whole entry): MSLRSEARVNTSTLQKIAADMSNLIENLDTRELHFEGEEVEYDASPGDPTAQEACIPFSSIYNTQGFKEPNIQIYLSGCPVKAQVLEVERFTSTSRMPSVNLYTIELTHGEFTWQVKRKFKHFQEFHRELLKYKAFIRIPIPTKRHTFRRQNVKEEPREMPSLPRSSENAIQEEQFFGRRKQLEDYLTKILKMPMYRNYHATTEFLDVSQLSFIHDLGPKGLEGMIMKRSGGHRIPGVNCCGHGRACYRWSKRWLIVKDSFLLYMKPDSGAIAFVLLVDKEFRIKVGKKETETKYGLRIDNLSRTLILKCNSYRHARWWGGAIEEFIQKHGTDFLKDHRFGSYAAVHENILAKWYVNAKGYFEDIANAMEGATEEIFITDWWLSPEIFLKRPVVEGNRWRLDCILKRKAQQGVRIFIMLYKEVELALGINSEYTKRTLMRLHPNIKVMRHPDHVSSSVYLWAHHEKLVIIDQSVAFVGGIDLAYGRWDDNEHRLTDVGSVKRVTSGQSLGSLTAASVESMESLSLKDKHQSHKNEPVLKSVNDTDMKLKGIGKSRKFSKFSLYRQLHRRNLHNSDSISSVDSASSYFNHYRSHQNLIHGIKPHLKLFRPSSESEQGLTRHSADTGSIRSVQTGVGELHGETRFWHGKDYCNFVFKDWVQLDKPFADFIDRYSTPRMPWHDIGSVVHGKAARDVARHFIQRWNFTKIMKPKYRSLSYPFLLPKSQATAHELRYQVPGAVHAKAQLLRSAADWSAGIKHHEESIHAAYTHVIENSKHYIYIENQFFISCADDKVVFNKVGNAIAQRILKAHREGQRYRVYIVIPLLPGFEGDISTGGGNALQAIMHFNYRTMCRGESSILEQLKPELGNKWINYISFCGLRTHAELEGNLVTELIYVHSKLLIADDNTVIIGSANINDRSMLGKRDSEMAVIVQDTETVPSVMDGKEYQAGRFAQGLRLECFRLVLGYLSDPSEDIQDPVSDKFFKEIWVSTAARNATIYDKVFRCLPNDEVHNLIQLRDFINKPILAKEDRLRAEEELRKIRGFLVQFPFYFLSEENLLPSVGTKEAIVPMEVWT

C=Cc1ccc(C(=O)NCCN2CCC(n3c(=O)[nH]c4ccccc43)CC2)cc1
IC50 (Phospholipase D2): 1900 nM
IC50 (Phospholipase D1): 1900 nM
